Sequences of proteins named here, by UniProt entry; tags and fusion partners are left off. Residues count along the entry.
UniProt Q9ZPM3, 99-393: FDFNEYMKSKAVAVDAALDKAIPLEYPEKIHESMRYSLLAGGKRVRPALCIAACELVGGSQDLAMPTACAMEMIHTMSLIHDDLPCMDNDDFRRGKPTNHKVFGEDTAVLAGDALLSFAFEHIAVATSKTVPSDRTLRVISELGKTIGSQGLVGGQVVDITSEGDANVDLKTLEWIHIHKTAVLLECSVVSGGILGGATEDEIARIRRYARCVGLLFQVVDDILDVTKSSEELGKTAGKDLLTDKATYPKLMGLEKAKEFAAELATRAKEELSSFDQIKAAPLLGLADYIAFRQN

In US6043072A, “Nucleic acids encoding Taxus geranylgeranyl diphosphate synthase, and methods of use” (Washington State University Research Foundation, priority 1998, dated 2000):

Target: T. canadensis GGPP synthase (Taxus canadensis, UniProt Q9ZPM3)
Experiment: Kinetic evaluation of recombinant GGPP synthase (standard prenyltransferase assay, double reciprocal plots)
Format: biochemical
Conditions: co-substrate at 12.5 and 25 mM; IPP and Mg^2+ at saturation
Description: The reaction was quenched by the addition of 300 mil of methanol:conc. HCl (4:1, v/v), and the allylic diphosphate products were solvolyzed (50, 51) upon further incubation at 42° C. for 20 min. The resulting solvolysis products were extracted twice with 1 ml pentane, and were either analyzed by liquid scintillation counting (in toluene:ethanol (7:3, v/v) containing 0.4% Omnifluor (DuPont NEN); ^14 C counting efficiency=96.0%) or concentrated on ice under a gentle stream of Ar to […] for further analysis.

In the case of CC(C)=CCOP(=O)(O)OP(=O)(O)O [DMAPP, dimethylallyl diphosphate], the “relative velocities of the reaction with allylic co-substrates” value is reported as 33%.
